According to patent publication US10512669B2, “Blockade of inflammatory proteases with cyclic peptides” (The Regents of the University of California, priority 2011, dated 2019):

System: chimpanzees
Test: escalating i.v. doses in adult chimpanzees: toxicity and immunogenicity
Conditions: two adult chimpanzees, 3 mg/kg maximum

SMILES: CC[C@H](C)[C@@H]1NC(=O)[C@@H]2CSSC[C@H](NC(=O)[C@H](CCCNC(=N)N)NC(=O)[C@@H]3CSSC[C@H](NC1=O)C(=O)N[C@@H]([C@@H](C)O)C(=O)N[C@@H](CCCNC(=N)N)C(=O)NCC(=O)N[C@@H](Cc1ccccc1)C(=O)N3)C(=O)N[C@@H](CC(C)C)C(=O)N[C@H]1CSSC[C@H](NC(=O)[C@H](C(C)C)NC(=O)CNC(=O)[C@H](CCCNC(=N)N)NC(=O)[C@H](CCCNC(=N)N)NC1=O)C(=O)N[C@@H](CCCNC(=N)N)C(=O)N2 [RTD-1] (cyclo(GFCRCLCRRGVCRCICTR); disulfide 3-16, 5-14, 7-12 (inferred); ring closure inferred)
- clinical toxicity: No clinical toxicity was observed

Bridge positions count the residues as written; N and C are the ends. Peptide text beside a SMILES is read from it.
